Measurements from patent publication US9302989B2 (priority 2010, dated 2016).

By UniProt entry, the sequences of proteins in these tests, tags left out. Where a name states a change or a piece, a line headed by the entry shows the natural chain unless it says otherwise.
UniProt P43490: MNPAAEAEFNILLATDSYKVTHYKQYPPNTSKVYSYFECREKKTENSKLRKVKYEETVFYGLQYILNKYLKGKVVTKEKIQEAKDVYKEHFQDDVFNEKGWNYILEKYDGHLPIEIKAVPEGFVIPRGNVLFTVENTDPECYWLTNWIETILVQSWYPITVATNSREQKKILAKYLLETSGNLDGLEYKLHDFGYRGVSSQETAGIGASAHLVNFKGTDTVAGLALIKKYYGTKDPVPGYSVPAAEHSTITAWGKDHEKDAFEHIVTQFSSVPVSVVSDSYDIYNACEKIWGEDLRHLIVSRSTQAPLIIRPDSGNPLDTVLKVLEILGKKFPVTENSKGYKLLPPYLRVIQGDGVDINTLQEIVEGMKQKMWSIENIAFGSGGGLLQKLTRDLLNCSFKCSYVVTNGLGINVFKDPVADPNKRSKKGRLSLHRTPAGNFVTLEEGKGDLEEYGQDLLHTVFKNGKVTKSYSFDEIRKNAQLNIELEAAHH

target: NAMPT (Homo sapiens (Human), UniProt P43490); settings: read-out: TR-FRET Binding IC50 (μM) probe 1

| SMILES | IC50 [µM] |
| --- | --- |
| O=C(NCc1ccc(OC(F)(F)F)cc1)c1ccc(NC(=O)N2Cc3ccccc3C2)cc1 [Example 33, N-(4-{[4-(trifluoromethoxy)benzyl]carbamoyl}phenyl)-1,3-dihydro-2H-isoindole-2-carboxamide] | 0.015 |
| CN(C)c1cccc(C(=O)N2CCN(c3ccc(NC(=O)N4Cc5ccccc5C4)cc3)CC2)c1 [Example 520, N-(4-{4-[3-(dimethylamino)benzoyl]piperazin-1-yl}phenyl)-1,3-dihydro-2H-isoindole-2-carboxamide] | 0.0488 |
| O=C(Nc1ccc(N2CCN(C(=O)c3ccncc3)CC2)cc1)N1Cc2ccccc2C1 [Example 531, N-[4-(4-isonicotinoylpiperazin-1-yl)phenyl]-1,3-dihydro-2H-isoindole-2-carboxamide] | 0.159 |
| CCCCN(CC)C(=O)c1ccc(NC(=O)N2Cc3ccccc3C2)cc1 [Example 242, N-{4-[butyl(ethyl)carbamoyl]phenyl}-1,3-dihydro-2H-isoindole-2-carboxamide] | 0.524 |
| O=C(NCCCCCCOc1ccc(Cl)cc1)N1Cc2ccccc2C1 [Example 351, N-[6-(4-chlorophenoxy)hexyl]-1,3-dihydro-2H-isoindole-2-carboxamide] | 0.064 |
| O=C(NCC1CCOC1)c1ccc(NC(=O)N2Cc3ccccc3C2)cc1 (centres unmarked) [Example 91, N-{4-[(tetrahydrofuran-3-ylmethyl)carbamoyl]phenyl}-1,3-dihydro-2H-isoindole-2-carboxamide] | 0.0342 |
| O=C(Nc1ccc(C2=CCN(C(=O)[C@@H]3CCOC3)CC2)cn1)N1Cc2ccccc2C1 [Example 454, N-[1′-((3R)-tetrahydrofuran-3-ylcarbonyl)-1′,2′,3′,6′-tetrahydro-3,4′-bipyridin-6-yl]-1,3-dihydro-2H-isoindole-2-carboxamide] | 0.0803 |
| CC(C)(C)OC(=O)NC1CCN(C(=O)c2ccc(NC(=O)N3Cc4ccccc4C3)cc2)CC1 [Example 195, tert-butyl (1-{4-[(1,3-dihydro-2H-isoindol-2-ylcarbonyl)amino]benzoyl}piperidin-4-yl)carbamate] | 0.172 |
| O=C(Nc1ccc(N2CCN(S(=O)(=O)c3ccccc3)CC2)cc1)N1Cc2ccccc2C1 [Example 338, N-{4-[4-(phenylsulfonyl)piperazin-1-yl]phenyl}-1,3-dihydro-2H-isoindole-2-carboxamide] | 0.0785 |
| CC(C)CCN(C)C(=O)c1ccc(NC(=O)N2Cc3ccccc3C2)cc1 [Example 208, N-{4-[methyl(3-methylbutyl)carbamoyl]phenyl}-1,3-dihydro-2H-isoindole-2-carboxamide] | 0.223 |
| CCCNC(=O)c1ccc(NC(=O)N2Cc3ccc(CO)cc3C2)cc1 [Example 275, 5-(hydroxymethyl)-N-[4-(propylcarbamoyl)phenyl]-1,3-dihydro-2H-isoindole-2-carboxamide] | 0.197 |
| CCCN(C(=O)c1ccc(NC(=O)N2Cc3ccccc3C2)cc1)C(C)C [Example 262, N-{4-[isopropyl(propyl)carbamoyl]phenyl}-1,3-dihydro-2H-isoindole-2-carboxamide] | 1.66 |
| O=C(Nc1ccc(C2=CCN(C(=O)c3ccccc3)CC2)cc1)N1Cc2ccccc2C1 [Example 332, N-[4-(1-benzoyl-1,2,3,6-tetrahydropyridin-4-yl)phenyl]-1,3-dihydro-2H-isoindole-2-carboxamide] | 0.0042 |
| O=C(NCc1ccccc1)c1ccc(NC(=O)N2Cc3ccc(F)cc3C2)cc1 [Example 9, N-[4-(benzylcarbamoyl)phenyl]-5-fluoro-1,3-dihydro-2H-isoindole-2-carboxamide] | 0.00502 |
| CC(C)CCNC(=O)CCNC(=O)N1Cc2ccccc2C1 [Example 365, N-{3-[(3-methylbutyl)amino]-3-oxopropyl}-1,3-dihydro-2H-isoindole-2-carboxamide] | 11.2 |
| CC(C)CCNC(=O)c1ccc(NC(=O)N2Cc3ccc(F)cc3C2)cc1 [Example 20, 5-fluoro-N-{4-[(3-methylbutyl)carbamoyl]phenyl}-1,3-dihydro-2H-isoindole-2-carboxamide] | 0.011 |
| N#Cc1cccc(C(=O)N2CCN(c3ccc(NC(=O)N4Cc5ccccc5C4)cc3)CC2)c1 [Example 518, N-{4-[4-(3-cyanobenzoyl)piperazin-1-yl]phenyl}-1,3-dihydro-2H-isoindole-2-carboxamide] | 0.266 |
| O=C(Nc1ccc(C2=CCN(Cc3ccccc3)CC2)cc1)N1Cc2ccccc2C1 [Example 433, N-[4-(1-benzyl-1,2,3,6-tetrahydropyridin-4-yl)phenyl]-1,3-dihydro-2H-isoindole-2-carboxamide] | 0.00807 |
| O=C(Nc1ccc(F)cc1)c1ccc(NC(=O)N2Cc3ccccc3C2)cc1 [Example 189, N-{4-[(4-fluorophenyl)carbamoyl]phenyl}-1,3-dihydro-2H-isoindole-2-carboxamide] | 0.149 |
| CCn1cc(NC(=O)c2ccc(NC(=O)N3Cc4ccc(F)cc4C3)cc2)cn1 [Example 48, N-{4-[(1-ethyl-1H-pyrazol-4-yl)carbamoyl]phenyl}-5-fluoro-1,3-dihydro-2H-isoindole-2-carboxamide] | 0.0186 |
| CCCNC(=O)c1ccc(NC(=O)N2Cc3ccc(C(=O)OC)cc3C2)cc1 [Example 272, methyl 2-{[4-(propylcarbamoyl)phenyl]carbamoyl}isoindoline-5-carboxylate] | 0.0816 |
| CCOCCN(CCOCC)C(=O)c1ccc(NC(=O)N2Cc3ccccc3C2)cc1 [Example 241, N-{4-[bis(2-ethoxyethyl)carbamoyl]phenyl}-1,3-dihydro-2H-isoindole-2-carboxamide] | 0.523 |
| Cc1ccc2c(c1)CN(C(=O)Nc1ccc(C(=O)N3CCN(c4ccccn4)CC3)cc1)C2 [Example 11, 5-methyl-N-(4-{[4-(pyridin-2-yl)piperazin-1-yl]carbonyl}phenyl)-1,3-dihydro-2H-isoindole-2-carboxamide] | 0.00618 |
| CC(C)C(=O)N1CC=C(c2ccc(NC(=O)N3Cc4ccccc4C3)nc2)CC1 [Example 453, N-(1′-isobutyryl-1′,2′,3′,6′-tetrahydro-3,4′-bipyridin-6-yl)-1,3-dihydro-2H-isoindole-2-carboxamide] | 0.0527 |
| O=C(NCCCc1ccccc1)c1ccc(NC(=O)N2Cc3ccccc3C2)nc1 [Example 369, N-{5-[(3-phenylpropyl)carbamoyl]pyridin-2-yl}-1,3-dihydro-2H-isoindole-2-carboxamide] | 0.00656 |
| CC(C)CCNC(=O)c1ccc(NC(=O)N2Cc3cccnc3C2)cc1 [Example 446, N-(4-{[(3-methylbutyl)amino]carbonyl}phenyl)-5,7-dihydro-6H-pyrrolo[3,4-b]pyridine-6-carboxamide] | 0.011 |
| Cn1cc(-c2ccc(NC(=O)N3Cc4ccccc4C3)cc2)cn1 [Example 320, N-[4-(1-methyl-1H-pyrazol-4-yl)phenyl]-1,3-dihydro-2H-isoindole-2-carboxamide] | 0.272 |
| CC(C)CCNC(=O)c1ccc(NC(=O)N2Cc3ccccc3C2)cc1 [Example 36, N-{4-[(3-methylbutyl)carbamoyl]phenyl}-1,3-dihydro-2H-isoindole-2-carboxamide] | 0.0157 |
| CCCNC(=O)c1ccc(NC(=O)N2Cc3ccc(F)cc3C2)cc1 [Example 373, 5-fluoro-N-[4-(propylcarbamoyl)phenyl]-1,3-dihydro-2H-isoindole-2-carboxamide] | 0.0234 |
